Values of other authors, collected in patent US10912841B2, “Antibody-drug-conjugate and its use for the treatment of cancer” (PIERRE FABRE MEDICAMENT, priority 2014, dated 2021).

What was measured:
[1] = tested on: Calu-3 xenograft (HER2 amplification); details: 15 mg/kg every 6 days (Cretella et al. 2014); cited from earlier work
[2] = tested on: JIMT-1 xenograft (HER2, resistant to Trastuzumab); details: 15 mg/kg every 6 days (Barok et al. 2011); cited from earlier work

TDM-1
Calu-3 tumor growth, published data [1]: did not induced complete regression | potency in JIMT-1 model, published data [2]: less potent
